Drawing on US20220175921A1 (published 2022), this text covers EC50 for two molecules.

What is called EC50 is the concentration that produces a half-maximal response.

This test concerns the target T1, human GITR, membrane bound (on activated human T cells or on 3A9-hGITR cells) (UniProt Q9Y5U5 26-241).
T1 chain: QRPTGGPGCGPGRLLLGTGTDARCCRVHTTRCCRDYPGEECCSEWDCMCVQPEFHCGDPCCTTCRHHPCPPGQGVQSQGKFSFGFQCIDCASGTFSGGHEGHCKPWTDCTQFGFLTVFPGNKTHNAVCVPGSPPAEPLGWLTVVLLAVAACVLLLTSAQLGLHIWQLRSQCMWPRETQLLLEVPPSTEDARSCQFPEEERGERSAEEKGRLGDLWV
In words: FACS. (In flow cytometry, cells or beads pass a laser one at a time.)

B1: anti-GITR.g2.g1f (antibody)
chain 1: QVQLVESGGGVVQPGRSLRLSCAASGFTFSSYGMHWVRQAPGKGLEWVAVIWYEGSNKYYADSVKGRFTISRDNSKNTLYLQMNSLRAEDTAVYYCARGGSMVRGDYYYGMDVWGQGTTVTVSSASTKGPSVFPLAPCSRSTSESTAALGCLVKDYFPEPVTVSWNSGALTSGVHTFPAVLQSSGLYSLSSVVTVPSSNFGTQTYTCNVDHKPSNTKVDKTVERKCCVE[human IgG1 Fc not given here]
chain 2: AIQLTQSPSSLSASVGDRVTITCRASQGISSALAWYQQKPGKAPKLLIYDASSLESGVPSRFSGSGSGTDFTLTISSLQPEDFATYYCQQFNSYPYTFGQGTKLEIKRTVAAPSVFIFPPSDEQLKSGTASVVCLLNNFYPREAKVQWKVDNALQSGNSQESVTEQDSKDSTYSLSSTLTLSKADYEKHKVYACEVTHQGLSSPVTKSFNRGEC
Molecule B1 came in with an EC50 of 0.203 nM.

B2: anti-GITR-IgG1.1f (antibody)
chain 1: QVQLVESGGGVVQPGRSLRLSCAASGFTFSSYGMHWVRQAPGKGLEWVAVIWYEGSNKYYADSVKGRFTISRDNSKNTLYLQMNSLRAEDTAVYYCARGGSMVRGDYYYGMDVWGQGTTVTVSSASTKGPSVFPLAPSSKSTSGGTAALGCLVKDYFPEPVTVSWNSGALTSGVHTFPAVLQSSGLYSLSSVVTVPSSSLGTQTYICNVNHKPSNTKVDKRVEPKSCDKTHTCPPCPAPEAEGAPSVFLFPPKPKDTLMISRTPEVTCVVVDVSHEDPEVKFNWYVDGVEVHNAKTKPREEQYNSTYRVVSVLTVLHQDWLNGKEYKCKVSNKALPSSIEKTISKAKGQPREPQVYTLPPSREEMTKNQVSLTCLVKGFYPSDIAVEWESNGQPENNYKTTPPVLDSDGSFFLYSKLTVDKSRWQQGNVFSCSVMHEALHNHYTQKSLSLSPG
chain 2: AIQLTQSPSSLSASVGDRVTITCRASQGISSALAWYQQKPGKAPKLLIYDASSLESGVPSRFSGSGSGTDFTLTISSLQPEDFATYYCQQFNSYPYTFGQGTKLEIKRTVAAPSVFIFPPSDEQLKSGTASVVCLLNNFYPREAKVQWKVDNALQSGNSQESVTEQDSKDSTYSLSSTLTLSKADYEKHKVYACEVTHQGLSSPVTKSFNRGEC
B2: it took 0.286 nM to reach a half-maximal effect (EC50).
